Test results published in ChEMBL document CHEMBL1132025, “Macrocyclic hexapeptide analogues of the thrombin receptor (PAR-1) activation motif SFLLRN” (Bioorg Med Chem Lett, 1999).

Biological target: Proteinase-activated receptor 1 (Homo sapiens) (UniProt P25116)
Assay: In vitro antagonist activity to inhibit human platelet aggregation (gel-filtered platelets) induced by human thrombin at a concentration of 50 uM

CC(C)C[C@H](NC(=O)[C@H](CC(C)C)NC(=O)[C@H](Cc1ccccc1)NC(=O)[C@@H](N)CO)C(=O)N[C@@H](CCCN=C(N)N)C(=O)N[C@@H](CC(N)=O)C(N)=O
inhibition: 0%
